Test results published in US20260146107A1 (ALLIGATOR BIOSCIENCE, published 2026).

Tests used:
[1] = target: T1, biotinylated human CEACAM5-His (Acro Biosystems #CE5-H82E0) (human, UniProt P06731 35-685, biotinylated (site not stated)); assay: Octet BLI, captured CEACAM5-biotin, bsAb in solution, 1:1 fit
T1 construct: also called CEACAM5-biotin; captured human CEACAM5-biotin; not shown: His tag
T1 sequence (looked up): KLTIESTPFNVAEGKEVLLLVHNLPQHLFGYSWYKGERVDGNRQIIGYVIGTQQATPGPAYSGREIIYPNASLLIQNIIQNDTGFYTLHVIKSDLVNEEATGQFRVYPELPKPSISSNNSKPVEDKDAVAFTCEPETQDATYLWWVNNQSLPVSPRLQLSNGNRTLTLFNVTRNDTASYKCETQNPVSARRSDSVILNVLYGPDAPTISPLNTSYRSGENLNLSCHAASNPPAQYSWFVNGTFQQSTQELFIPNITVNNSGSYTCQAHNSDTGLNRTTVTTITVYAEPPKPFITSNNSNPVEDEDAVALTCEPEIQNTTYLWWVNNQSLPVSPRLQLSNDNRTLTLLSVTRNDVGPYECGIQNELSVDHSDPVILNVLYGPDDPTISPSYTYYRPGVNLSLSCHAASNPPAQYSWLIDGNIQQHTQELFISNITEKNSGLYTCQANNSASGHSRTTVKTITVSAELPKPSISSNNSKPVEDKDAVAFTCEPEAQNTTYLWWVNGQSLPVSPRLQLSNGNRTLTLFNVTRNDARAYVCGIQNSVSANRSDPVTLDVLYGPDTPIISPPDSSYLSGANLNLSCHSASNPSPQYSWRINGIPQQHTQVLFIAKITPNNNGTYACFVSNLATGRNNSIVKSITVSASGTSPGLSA

[2] = target: T2, human CEACAM1 expressed on CHO cells (human, UniProt P13688 35-526); assay: flow cytometry on CHO-CEACAM1 cells, fluorochrome-conjugated anti-human IgG, MFI
T2 construct: whole, on cells; also called CHO-CEACAM1; CEACAM1 on cells
T2 sequence (looked up): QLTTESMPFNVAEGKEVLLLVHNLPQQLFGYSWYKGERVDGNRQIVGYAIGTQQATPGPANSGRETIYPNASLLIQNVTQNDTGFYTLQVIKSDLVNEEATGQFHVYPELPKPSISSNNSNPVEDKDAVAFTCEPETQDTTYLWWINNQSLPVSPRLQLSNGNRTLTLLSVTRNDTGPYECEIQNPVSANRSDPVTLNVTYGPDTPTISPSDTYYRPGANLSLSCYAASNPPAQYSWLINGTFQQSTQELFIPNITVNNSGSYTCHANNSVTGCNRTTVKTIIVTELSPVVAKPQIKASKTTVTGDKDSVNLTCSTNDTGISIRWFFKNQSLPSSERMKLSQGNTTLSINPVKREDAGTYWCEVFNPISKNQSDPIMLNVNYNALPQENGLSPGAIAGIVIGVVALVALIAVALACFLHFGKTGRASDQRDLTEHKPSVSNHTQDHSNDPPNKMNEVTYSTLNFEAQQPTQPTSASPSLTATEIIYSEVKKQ

[3] = target: T3, human CEACAM5, recombinant (R&D Systems #4128-CM-050) (human, UniProt P06731 35-685); assay: Octet BLI, captured bsAb, monomeric CEACAM5 in solution, 1:1 fit
T3 construct: Bought; coated in ELISA and used as monomeric analyte in Octet; also called hCEACAM-5; Human CEACAM5-His; not shown: His tag
T3 sequence (looked up): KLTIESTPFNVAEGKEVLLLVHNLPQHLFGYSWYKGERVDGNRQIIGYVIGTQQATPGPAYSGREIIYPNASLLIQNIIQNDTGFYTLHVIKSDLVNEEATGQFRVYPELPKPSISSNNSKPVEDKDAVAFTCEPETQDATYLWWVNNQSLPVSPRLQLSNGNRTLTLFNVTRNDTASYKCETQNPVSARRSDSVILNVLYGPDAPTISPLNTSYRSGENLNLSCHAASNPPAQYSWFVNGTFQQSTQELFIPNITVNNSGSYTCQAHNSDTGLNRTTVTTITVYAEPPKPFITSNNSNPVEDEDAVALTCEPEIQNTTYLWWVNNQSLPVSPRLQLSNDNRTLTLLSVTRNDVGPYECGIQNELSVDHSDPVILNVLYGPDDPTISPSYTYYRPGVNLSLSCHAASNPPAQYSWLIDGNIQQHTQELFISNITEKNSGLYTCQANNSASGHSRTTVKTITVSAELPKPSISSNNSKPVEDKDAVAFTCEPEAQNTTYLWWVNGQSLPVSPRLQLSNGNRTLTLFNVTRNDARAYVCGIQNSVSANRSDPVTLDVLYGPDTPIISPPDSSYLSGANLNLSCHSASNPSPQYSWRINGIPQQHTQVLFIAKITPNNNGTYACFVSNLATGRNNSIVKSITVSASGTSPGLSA

Kd [1]: 840 nM
koff [1]: 0.0015 s⁻¹
kon [1]: 1800 M⁻¹ s⁻¹
binding result [2]: no binding (tested: about 400 nM)
Kd [3]: 2 nM
koff [3]: 0.00091 s⁻¹
kon [3]: 470000 M⁻¹ s⁻¹
B1: Multi42 (bispecific antibody, human IgG1, kappa, L234A L235A)
chain 1: not shown
chain 2: EIVLTQSPGTLSLSPGERATLSCRASQSVSSSYLAWYQEKPGQAPRLLIYGASSRATGIPDRFSGSGSGTDFTLTISRLEPEDFAVYYCQQYWYPLTFGQGTKLEIKRTVAAPSVFIFPPSDEQLKSGTASVVCYLNNFYPREAKVQWKVDNALQSGNSQESVTEQDSKDSTYSLWSTLTLSKADYEKHKVYACEVTHQGLSSPVTKSFNRGEC
chain 3: EVQLLESGGGLVQPGGSLRLSCAASGFTFSTYGMHWVREAPGKGLEWLSYISGGSSYIFYADSVKGRFTISRDNSKNTLYLQMNSLRAEDTAVYYCARILRGGSGMDLWGQGTLVTVSSASTKGPSVFPLAPSSKSTSGGTAALGCLVKDYFPEPVTVSWNSGALTSGVHTFPAVLQSSGLYSLTSVVEVPSSSLGTQTYICNVNHKPSNTKVDKKVEPKSC
